The values that follow are results of earlier work, collected in patent publication US20240156846A1, “COMPOSITIONS AND METHODS FOR TREATING NEURODEGENERATIVE DISORDERS” (Arizona Board of Regents on Behalf of the University of …, priority 2020, published 2024).

For data set [1], the system named is Aβ present in the brain of mice. Conditions: preclinical trials; cited from earlier work.
For data set [2] the following is noted: cited from earlier work.

On to bapineuzumab: monoclonal antibody, for which the “amount of Aβ present in the brain” value in data set [1] is “lower the amount of Aβ present in the brain of mice”. Further, the “amyloid load or CSF phosphorylated tau levels between treatment and placebo groups” value in data set [2] (another phase three clinical trial) is “no significant difference”. Further, in data set [2] (phase three trial), the “functional or cognitive ability in treated patients” value is given as “failed to show significant improvement”.
